Data as given in ChEMBL document CHEMBL1129998, “Pharmacological options in the treatment of benign prostatic hyperplasia” (J Med Chem, 1997).

Molecular target: T1, Alpha-1A adrenergic receptor (Homo sapiens, UniProt P35348)
T1 sequence (P35348 whole entry): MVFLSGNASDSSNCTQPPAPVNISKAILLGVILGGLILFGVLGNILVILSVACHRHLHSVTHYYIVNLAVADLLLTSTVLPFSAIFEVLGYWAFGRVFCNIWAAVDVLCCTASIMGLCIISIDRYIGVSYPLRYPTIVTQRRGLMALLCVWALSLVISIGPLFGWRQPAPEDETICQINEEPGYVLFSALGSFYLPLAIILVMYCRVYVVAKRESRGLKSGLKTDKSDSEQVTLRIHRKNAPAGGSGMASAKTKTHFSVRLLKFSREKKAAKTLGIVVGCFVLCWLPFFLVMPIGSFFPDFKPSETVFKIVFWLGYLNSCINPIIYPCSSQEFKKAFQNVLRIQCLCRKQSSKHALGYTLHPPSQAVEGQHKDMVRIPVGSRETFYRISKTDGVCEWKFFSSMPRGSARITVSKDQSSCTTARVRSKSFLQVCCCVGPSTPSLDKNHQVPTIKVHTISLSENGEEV
Experiment: Binding affinity was tested on human Alpha-1A adrenergic receptor

- Ki: 0.251 µM
SMILES: COc1ccccc1N1CCN(CCN2C(=O)CC3(CCCC3)CC2=O)CC1
